The numbers were not newly measured in patent US20160271257A1, “Low Molecular Weight Immune-Modulators As Adjuvants for Specific Immunotherapy” (PLS-DESIGN GMBH, priority 2013, published 2016), which cites them from elsewhere.

Sequences of proteins named here, by UniProt entry; tags and fusion partners are left off. Residues count along the entry.
UniProt P12387, 23-1666: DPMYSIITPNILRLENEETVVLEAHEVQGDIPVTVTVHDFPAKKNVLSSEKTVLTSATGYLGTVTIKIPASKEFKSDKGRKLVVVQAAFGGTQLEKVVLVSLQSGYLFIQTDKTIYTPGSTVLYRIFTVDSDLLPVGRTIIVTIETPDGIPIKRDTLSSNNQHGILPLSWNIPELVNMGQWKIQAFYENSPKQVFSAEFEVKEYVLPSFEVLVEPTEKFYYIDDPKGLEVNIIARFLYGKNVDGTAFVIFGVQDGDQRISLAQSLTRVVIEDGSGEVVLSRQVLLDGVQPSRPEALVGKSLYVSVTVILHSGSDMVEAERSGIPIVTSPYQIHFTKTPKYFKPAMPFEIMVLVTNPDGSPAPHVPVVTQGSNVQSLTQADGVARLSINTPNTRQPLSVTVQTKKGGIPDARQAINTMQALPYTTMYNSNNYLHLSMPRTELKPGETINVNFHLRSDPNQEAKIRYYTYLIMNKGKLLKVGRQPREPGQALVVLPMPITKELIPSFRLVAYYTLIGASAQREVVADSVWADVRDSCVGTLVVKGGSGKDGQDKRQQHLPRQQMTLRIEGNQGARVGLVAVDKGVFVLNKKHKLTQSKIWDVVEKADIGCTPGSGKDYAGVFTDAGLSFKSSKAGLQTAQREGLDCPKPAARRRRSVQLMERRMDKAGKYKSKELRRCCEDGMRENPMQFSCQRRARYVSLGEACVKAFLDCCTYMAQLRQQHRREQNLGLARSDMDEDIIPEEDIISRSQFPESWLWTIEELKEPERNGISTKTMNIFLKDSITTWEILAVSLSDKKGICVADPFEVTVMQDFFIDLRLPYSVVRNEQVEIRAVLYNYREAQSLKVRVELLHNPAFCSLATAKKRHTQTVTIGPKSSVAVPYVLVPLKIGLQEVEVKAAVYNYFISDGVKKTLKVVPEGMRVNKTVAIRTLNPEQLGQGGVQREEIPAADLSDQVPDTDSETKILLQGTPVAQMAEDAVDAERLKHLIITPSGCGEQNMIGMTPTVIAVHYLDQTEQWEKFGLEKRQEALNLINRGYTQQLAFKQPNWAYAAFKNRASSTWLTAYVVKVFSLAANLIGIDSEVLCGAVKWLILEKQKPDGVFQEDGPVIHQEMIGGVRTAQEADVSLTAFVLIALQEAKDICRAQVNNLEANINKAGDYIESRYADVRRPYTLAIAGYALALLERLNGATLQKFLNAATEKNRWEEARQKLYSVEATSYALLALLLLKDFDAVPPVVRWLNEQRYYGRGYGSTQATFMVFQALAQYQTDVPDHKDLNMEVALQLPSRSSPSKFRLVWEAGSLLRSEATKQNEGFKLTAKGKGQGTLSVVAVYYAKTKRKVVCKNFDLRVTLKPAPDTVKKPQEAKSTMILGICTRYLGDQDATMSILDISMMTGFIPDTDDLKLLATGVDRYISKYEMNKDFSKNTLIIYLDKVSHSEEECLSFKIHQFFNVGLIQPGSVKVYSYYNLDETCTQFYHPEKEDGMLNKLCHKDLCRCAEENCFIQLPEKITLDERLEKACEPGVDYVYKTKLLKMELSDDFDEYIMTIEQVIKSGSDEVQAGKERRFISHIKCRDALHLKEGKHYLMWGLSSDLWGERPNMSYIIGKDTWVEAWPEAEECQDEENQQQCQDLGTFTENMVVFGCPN

As a reminder, the IC50 is the point on the concentration scale where inhibition reaches its midpoint.

In data set [1] the target is T1, C3 (Mus musculus, UniProt P01027).
T1 construct: from tissue; host or cells: mouse serum (value cited from Sahu et al., 2003)
T1 sequence (P01027 25-666 limits assumed): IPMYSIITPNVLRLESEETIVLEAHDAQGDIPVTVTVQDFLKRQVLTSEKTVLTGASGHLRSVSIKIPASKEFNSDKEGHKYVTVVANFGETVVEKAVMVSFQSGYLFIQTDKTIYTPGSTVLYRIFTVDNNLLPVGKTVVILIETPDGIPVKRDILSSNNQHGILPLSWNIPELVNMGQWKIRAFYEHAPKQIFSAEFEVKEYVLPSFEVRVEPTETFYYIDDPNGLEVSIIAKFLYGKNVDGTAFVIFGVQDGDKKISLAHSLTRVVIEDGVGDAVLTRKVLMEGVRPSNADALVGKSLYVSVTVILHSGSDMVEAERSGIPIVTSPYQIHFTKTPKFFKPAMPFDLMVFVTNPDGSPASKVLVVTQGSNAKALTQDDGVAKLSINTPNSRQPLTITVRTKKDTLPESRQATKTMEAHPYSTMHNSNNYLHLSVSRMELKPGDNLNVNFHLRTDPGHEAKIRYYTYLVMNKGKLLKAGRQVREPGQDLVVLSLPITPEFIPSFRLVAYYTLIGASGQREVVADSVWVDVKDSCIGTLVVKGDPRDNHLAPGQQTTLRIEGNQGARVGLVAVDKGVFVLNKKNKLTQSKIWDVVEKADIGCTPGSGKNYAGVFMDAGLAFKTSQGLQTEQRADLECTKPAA
Conditions: sera from mice; read-out: IC50 of haemolytic activity.

In data set [2] the target is T2, C3 (Cavia porcellus, UniProt P12387).
T2 construct: from tissue; host or cells: guinea pig serum (value cited from Sahu et al., 2003)
Conditions: sera from guinea pigs; read-out: IC50 of haemolytic activity.

Turning to `CC[C@H](C)[C@H](N)C(=O)N[C@H]1CSSC[C@@H](C(=O)N[C@H](C(N)=O)[C@@H](C)O)NC(=O)[C@H](CCCN=C(N)N)NC(=O)[C@H](Cc2cnc[nH]2)NC(=O)[C@H](Cc2cnc[nH]2)NC(=O)CNC(=O)[C@H](Cc2c[nH]c3ccccc23)NC(=O)[C@H](CC(=O)O)NC(=O)[C@H](CCC(N)=O)NC(=O)[C@H](C(C)C)NC(=O)[C@H](C(C)C)NC1=O` [compstatin], the concentration for half-maximal inhibition (IC50) on C3 [1] and at C3 [2] was greater than 600 µM throughout.
